Biological target: norepinephrine uptake (Rattus norvegicus, UniProt Q9WTR4)
Test: Synaptosomal uptake of ³H-norepinephrine in rat cerebral cortex synaptosomes
Conditions: read-out: IC₅₀ NE Uptake; Cortical synaptosomes, 50 nM ³H-NE, 37°C for 5 minutes; IC₅₀ by linear regression analysis

Protein sequences, listed by entry. Tags and fused reporters are not part of them. Residues count along the entry.
UniProt Q9WTR4, 1-597: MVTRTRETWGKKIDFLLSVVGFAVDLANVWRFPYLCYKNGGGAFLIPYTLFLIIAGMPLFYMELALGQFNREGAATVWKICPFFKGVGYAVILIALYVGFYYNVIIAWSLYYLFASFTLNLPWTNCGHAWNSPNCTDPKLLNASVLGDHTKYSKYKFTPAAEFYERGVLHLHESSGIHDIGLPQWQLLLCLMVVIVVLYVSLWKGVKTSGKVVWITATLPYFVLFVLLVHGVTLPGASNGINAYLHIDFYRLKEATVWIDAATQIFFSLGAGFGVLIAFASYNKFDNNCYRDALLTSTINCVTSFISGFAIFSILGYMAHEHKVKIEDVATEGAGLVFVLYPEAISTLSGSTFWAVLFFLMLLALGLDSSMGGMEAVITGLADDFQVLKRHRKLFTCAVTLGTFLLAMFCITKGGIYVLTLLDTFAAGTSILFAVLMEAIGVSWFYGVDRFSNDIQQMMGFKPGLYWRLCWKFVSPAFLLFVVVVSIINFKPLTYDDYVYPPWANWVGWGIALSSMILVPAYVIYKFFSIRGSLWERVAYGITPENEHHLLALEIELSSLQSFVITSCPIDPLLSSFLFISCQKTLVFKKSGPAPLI

Compound: CNCCC(Oc1ccccc1SC)c1ccccc1 (stereo not shown)
- IC50: 4.4 nM
